In ChEMBL document CHEMBL2346625 (Bioorg Med Chem, 2013):

Experiments:
[1] = biological target: T1, Streptokinase (Streptococcus pyogenes) (UniProt P96471); test: Inhibition of Streptococcus pyogenes UMAA2616 streptokinase assessed as cleavage of S-2403 to colored product p-nitroaniline at 50 uM after 2 hrs relative to control
T1 sequence (whole entry): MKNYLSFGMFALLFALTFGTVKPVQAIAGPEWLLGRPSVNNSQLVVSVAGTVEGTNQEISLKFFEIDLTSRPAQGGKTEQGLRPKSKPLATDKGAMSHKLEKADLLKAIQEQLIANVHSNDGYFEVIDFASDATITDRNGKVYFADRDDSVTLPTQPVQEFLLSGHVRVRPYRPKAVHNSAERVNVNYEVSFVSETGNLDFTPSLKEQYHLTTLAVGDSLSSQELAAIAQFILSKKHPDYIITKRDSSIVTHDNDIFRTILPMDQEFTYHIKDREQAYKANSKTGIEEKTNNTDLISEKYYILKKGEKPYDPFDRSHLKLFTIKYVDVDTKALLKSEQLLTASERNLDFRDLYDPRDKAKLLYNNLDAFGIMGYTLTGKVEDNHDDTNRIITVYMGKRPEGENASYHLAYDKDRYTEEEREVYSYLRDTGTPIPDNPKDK
How it was run: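 UMAA2616 grown in THY (0.1% DMSO, compound at 5 or 50 μM) at 37 °C to OD600 ≈ 1.0, then centrifuged. Supernatant mixed with PBS, human plasma and S-2403 plasmin substrate and incubated 2 h at 37 °C; A405 read. Activity came from a DMSO-culture standard curve, was corrected for growth by OD600 and expressed as test/control. Mean of at least three experiments ± SD.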

Streptokinase = biological target: T2, Streptokinase (Streptococcus pyogenes, UniProt P96471)
T2 sequence (P96471 whole entry): T1 sequence (whole entry)

Row | SMILES | T/C [1] | IC50 (Streptokinase)
1 | C=CCn1c(NCC)nc2c(c1=O)C(C)(C)Cc1ccccc1-2 | inactive | 
2 | CCn1c(SCCOC)nc2c(c1=O)C(C)(C)Cc1ccccc1-2 | inactive | 
3 | C=CCn1c(SCCO)nc2c(c1=O)C(C)(C)Cc1ccccc1-2 | inactive | 
4 | C=CCn1c(SCc2ccccc2)nc2c(c1=O)C(C)(C)Cc1ccccc1-2 |  | 10.8 µM

Activity calls are given as the source filed them. The calls are words filed in the database; no cut-off is given here.
